Giardia kill – Giardia lamblia killing. Giardia lamblia trophozoite viability. activity change, % at 7.66 µM, hits read low. 340,000 tested, 0.15% active. AID 540267; in the data active = activity change below about -80%; inconclusive = between about -30% and that limit;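 also: parasites exposed to compound for two days anaerobically before the ATP read; % is scaled to controls: 0 for no effect and ±100 for the full control effect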
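Trophozoites 100 cells/well + cpd; 48 hrs, 37 deg C, anaerobic. ATPLite 1-Step added, 15-30 min RT, luminescence read (ATP-based viability).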
PINK1 expr mod – modulators of PINK1 expression | AID 624263 | 410,000 tested, 0.2% active | Potency, µM (doses to about 76.6 µM), for inactives: at the highest dose activation (PINK1 increase), usual class: activators | PINK1 immunofluorescence, high-content cytometry, 24 h; active = well fitted activation curve with a large enough effect; inconclusive = small, poorly fitted or top-dose-only effect; cell line not stated here; also: potency is read from the fitted curve at half-maximal effect; % of control where 0% means no effect; nearly all actives have a fitted effect of over 65% in size
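Stable cell line treated 24 h with compounds at 5 concentrations (CCCP controls), then fixed and immunostained for PINK1 plus nuclear and cell stains; PINK1 immunofluorescence quantified by laser-scanning microplate cytometry.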
ALOX12 inh – ALOX12 (human) lipoxygenase inhibition. P18054. purified 12hLO, xylenol orange hydroperoxide absorbance. Potency, µM (titrated, usually from 108 µM), for inactives: at the highest dose activity change, negative = inhibition, most hits filed as inhibitors. 580,000 tested, 1.1% active; also: potency is read from the fitted curve at half-maximal effect; % is scaled to controls: 0 for no effect and ±100 for the full control effect
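Purified human 12hLO at 150 nM in 25 mM Hepes, 0.01% Triton X-100, pH 7.0, preincubated 15 min at room temperature with compound. Reaction started with 40 uM arachidonic acid, 30 min at room temperature. Hydroperoxide measured by Fe-xylenol orange, 573/405 nm absorbance ratio.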
PTHR1 ag – activates the human parathyroid hormone receptor PTHR1; Potency, µM (doses to about 115 µM), inactives show top-dose activation, actives largely listed as activators; HEK293 GP2 PTHR1 cells, GloSensor cAMP luminescence, 1 h; 410,000 tested, 0.075% active; Q03431; also: potency is read from the fitted curve at half-maximal effect; nearly all actives have a fitted effect of over 55% in size
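HEK-293-derived GP2 cells expressing PTHR1 and a GloSensor cAMP reporter, 3,000/well, plated overnight, given luciferin plus IBMX (each 0.5 mM as added) for 1 h at 37 °C, then compound for 1 h at 37 °C. Luminescence was read after 15 min at room temperature.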
ERG-DNA inh – ERG Ets/DNA interaction inhibition; Potency, µM (doses to about 76.9 µM), inactives show top-dose FP activity, negative = inhibition, hits mostly inhibitors; fluorescence polarization, His-ERG Ets domain / labelled DNA; 370,000 tested, 0.028% active; AID 624246; active = well fitted inhibition curve with a large enough effect in the polarisation, with a control signal flat; inconclusive = small, poorly fitted or top-dose-only effect, or effect the other way, or a change in a side signal; inactive = no such curve, though single readings can be large or run the other way; the % refers to the polarisation;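 also: polarization taken with two DNA probes labelled with fluorescein and Texas red; potency is read from the fitted curve at half-maximal effect; % of control where 0% means no effect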
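His-tagged ERG Ets domain (1 uM in the protein solution; 300mM KCl, 50mM Tris-HCl, 1mM EDTA, 1mM DTT, pH 7.5) received compound, then a probe mix of 5 nM fluorescein-DNA and 100nM Texas-615-DNA. Fluorescence polarization was read for both dyes.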
miR-21 reporter – miR-21 reporter, rising signal; HeLa miR-21 FLuc reporter, luciferase, 48 h; Potency, µM (highest dose often 38.3 µM), for the others: top-dose reporter change, positive = more light; 340,000 tested, under 10 active; AID 2288; active = well fitted rising curve with a large enough effect; inconclusive = small, poorly fitted or top-dose-only effect; inactive = no such curve, though single readings can be large or run the other way;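 further: % of control where 0% means no effect; miR-21 action dims this reporter so a rising signal means less miR-21 action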
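Luminescence from a firefly luciferase reporter carrying a miR-21 binding site downstream, stably expressed under a CMV promoter in HeLa cells that make miR-21 endogenously, reports miRNA modulation after 48 h compound exposure up to approximately 40uM final.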
Starred values were filed as active, the others as inactive; i = inactive; ? = inconclusive; · = no result given; ! = repeats disagree; [ ] = another dose, or the depositor's remark. Most compounds without a hit are left out; they make up all but 1.3% or so of the library. Unless noted, calls follow the shape of the dose curve; as a rule, active = well fitted curve in the direction sought with a large enough effect; inconclusive = small, poorly fitted or top-dose-only effect, or another doubt; inactive = no such curve, though single readings can be large; an effect the other way counts as inactive or inconclusive.

The first four entries, to show the layout:
(1) Cn1cc(C(=O)NC2(C)CCS(=O)(=O)C2)c2ccccc21 (stereo not given)
(2) Cn1cc(C(=O)NC2CCS(=O)(=O)C2)c2ccccc21 (stereo not given)
(3) COc1ccc(Nc2nc(N3CCCCC3)c3ccccc3n2)cc1
(4) COc1ccc(/C(O)=C2/C(=O)C(=O)N(c3ccccn3)C2c2ccc(C(C)C)cc2)cc1 (stereo not given)

assay / compound | 1 | 2 | 3 | 4
Giardia kill | · | · | -6 | 7
PINK1 expr mod | · | · | 5% | 2%
ALOX12 inh | 13µM* | 29% | 28µM* | 3%
PTHR1 ag | · | · | -23% | -71%
ERG-DNA inh | · | · | -10% | -12%
miR-21 reporter | · | · | 18% | -18%

Results, repeating the preview:
(1) Cn1cc(C(=O)NC2(C)CCS(=O)(=O)C2)c2ccccc21 (stereo not given)
(2) Cn1cc(C(=O)NC2CCS(=O)(=O)C2)c2ccccc21 (stereo not given)
(3) COc1ccc(Nc2nc(N3CCCCC3)c3ccccc3n2)cc1
(4) COc1ccc(/C(O)=C2/C(=O)C(=O)N(c3ccccn3)C2c2ccc(C(C)C)cc2)cc1 (stereo not given)
(5) CCC(CC)C(=O)Nc1nn2c(CC(C)C)nnc2s1
(6) CCCC(=O)Nc1nn2c(CC(C)C)nnc2s1
(7) CNC[C@H](O)c1ccc(O)c(O)c1
(8) CCCN1C(=O)/C(=c2\sc3nc(=O)c(Cc4ccc(C)cc4)nn3c2=O)c2ccccc21

assay / compound | 1 | 2 | 3 | 4 | 5 | 6 | 7 | 8
Giardia kill | · | · | -6 | 7 | · | · | -14 | 22
PINK1 expr mod | · | · | 5% | 2% | · | · | 1% | -2%
ALOX12 inh | 13µM* | 29% | 28µM* | 3% | 16µM* | 25µM* | 1.4µM*! | 50µM*
PTHR1 ag | · | · | -23% | -71% | · | · | ? | ?
ERG-DNA inh | · | · | -10% | -12% | · | · | 19% | 5%
miR-21 reporter | · | · | 18% | -18% | · | · | -15% | 0%

(9) O=C(NC(=S)NCCO)c1cn(-c2ccccc2)nc1-c1ccccc1
(10) C=CCNC(=S)NNc1nc2c(c(=O)[nH]1)C1(CCCC1)Cc1ccccc1-2
(11) O=c1[nH]c(NNC(=S)NCc2ccccc2)nc2c1C1(CCCCC1)Cc1ccccc1-2
(12) S=C(NCc1ccccc1)NNc1nc2ccccc2[nH]1
(13) CC1(C)Cc2c(c(N3CCOCC3)nc3sc(C(=O)Nc4ccc(Cl)cc4)c(N)c23)CO1
(14) CN(C)/C=C1\Oc2ccc3ccccc3c2C1=O
(15) CN(C)/C=C1/Oc2c(ccc3ccccc23)C1=O
(16) COCCCNC(=O)N1[C@H](c2cccs2)[C@@H](C)C(=O)[C@@H](C)[C@@H]1c1cccs1

assay / compound | 9 | 10 | 11 | 12 | 13 | 14 | 15 | 16
Giardia kill | 6 | 6 | 0 | -10 | 7 | -19 | 7 | ·
PINK1 expr mod | 1% | 8% | ? | -1% | 11% | 1% | 0% | -1%
ALOX12 inh | 40µM* | ? | 35µM* | 32µM* | 2.8µM*! | 5µM* | 0% | -1%
PTHR1 ag | 0% | ? | 17% | i | -40% | -26% | i | -25%
ERG-DNA inh | 4% | -5% | 5% | -5% | 2% | 28% | 14% | 10%
miR-21 reporter | 1% | 7% | -1% | -2% | -14% | -60% | -3% | 1%

(17) O=S(=O)(NC(c1ccccc1)c1ccccc1)c1cccc2nsnc12
(18) O=C(CN1C(=O)COc2ccc(S(=O)(=O)N3CCCCCC3)cc21)N1CCN(c2ccccc2F)CC1
(19) COc1ccc(C(C[N+](=O)[O-])c2c(-c3ccccc3)cc3ccccn23)c(OC)c1 (stereo not given)
(20) COc1cccc(CN2CC[C@@](C)(O)[C@H](N3CCCC3)C2)c1OC
(21) COC(=O)c1ccc(NCc2cc(O)ccc2O)cc1O
(22) COC(=O)c1ccc(NCc2c(O)ccc(O)c2Br)cc1Cl
(23) Cc1ccc(C(=O)N(Cc2cc3cc4c(cc3nc2N2CCOCC2)CCC4)CC2CCCO2)cc1 (stereo not given)
(24) Cc1cc(C)cc(NC(=O)CCS(=O)(=O)c2ccc3nc(C)sc3c2)c1

assay / compound | 17 | 18 | 19 | 20 | 21 | 22 | 23 | 24
Giardia kill | · | · | 11 | · | -16 | 14 | · | ·
PINK1 expr mod | · | 2% | 10% | · | 2% | 24% | 2% | 1%
ALOX12 inh | 11µM* | -5% | 1.6µM* | 175% | 5µM* | 0.89µM* | -2% | -18%
PTHR1 ag | · | -17% | -54% | · | i | -26% | · | i
ERG-DNA inh | · | ? | 7% | · | · | · | · | 0%
miR-21 reporter | · | 1% | 1% | · | · | · | · | 5%

(25) COC(=O)c1cc(NC(=S)NCc2ccc(Cl)cc2)cc(C(=O)OC)c1
(26) COc1ccccc1NC(=S)NCc1ccc(Cl)cc1
(27) COc1ccc(CNC(=S)NCc2ccc(Cl)cc2)cc1OC
(28) COc1ccccc1NC(=S)NCc1ccccc1
(29) Cc1ccc(NC(=S)NCc2ccc(Cl)cc2)c(C)c1
(30) Cc1c2c(nc3ccccc13)OCC2
(31) CCCNC(=O)N1CCC(=O)N(CC)C2(CCOCC2)C1
(32) Cc1ccc(-n2nc(C)c3c(C(=O)NC4CCN(Cc5ccccc5)CC4)cc(C)nc32)cc1

assay / compound | 25 | 26 | 27 | 28 | 29 | 30 | 31 | 32
Giardia kill | 5 | -8 | 4 | 5 | 2 | 19 | · | ·
PINK1 expr mod | ? | 0% | 0% | 0% | 6% | 3% | · | ·
ALOX12 inh | 45µM* | 11µM* | 50µM* | ? | 35µM* | -7% | 9% | 7.1µM*
PTHR1 ag | -28% | i | -32% | i | -33% | i | · | ·
ERG-DNA inh | 7% | -4% | -2% | -5% | -3% | 1% | · | ·
miR-21 reporter | 24% | 6% | 8% | 0% | 20% | -3% | · | ·

(33) CC(C)CN1C(=O)COC[C@@H]1[C@H](O)c1ccc(NC(=O)CCc2ccccc2)cc1
(34) COc1cc2c(cc1OC)C(c1cc(Br)ccc1F)N(C(=O)CCl)CC2 (stereo not given)
(35) COc1cc2c(cc1OC)C(C1C(=O)CC(C)(C)CC1=O)N(C(=O)CCl)CC2 (stereo not given)
(36) COc1ccc(-c2nc(CNC(=O)Nc3ccccc3)c(C)o2)c(OC)c1
(37) CNC(=O)[C@@H](c1ccc(Cl)cc1)N1CCC[C@H]1C(=O)NCCN1CCCC1
(38) CCCNC(=O)[C@@H]1CCCN1[C@@H](C(=O)NC)c1ccc(OC)cc1
(39) CCn1cnc2c([N+](=O)[O-])c(NS(=O)(=O)c3ccc(C)cc3)ccc21
(40) CC(=O)N1CCC([C@@H]2CN(C(=O)c3ccc(Br)o3)C[C@H]2CO)CC1

assay / compound | 33 | 34 | 35 | 36 | 37 | 38 | 39 | 40
Giardia kill | · | -11 | -2 | · | · | · | -88* | ·
PINK1 expr mod | · | -1% | 0% | 0% | · | · | 0% | ·
ALOX12 inh | 68%[176 µM] | 16µM* | ? | -18% | 0% | 10µM* | -4% | 7%
PTHR1 ag | · | -59% | -23% | i | · | · | i | ·
ERG-DNA inh | · | 11% | ? | 2% | · | · | 3% | ·
miR-21 reporter | · | ? | 4% | -17% | · | · | · | ·

(41) CCCCc1c(-c2ccccc2OC)ncn1Cc1ccc(Cl)cc1Cl
(42) CCCCc1c(-c2ccccc2OC)ncn1Cc1ccc(F)cc1F
(43) CC(C)C(C)(C#N)NC(=O)CSc1ncnc2sc(-c3ccccc3)cc12 (stereo not given)
(44) CCCCC1Cc2[nH]c(=S)[nH]c(=O)c2C(C(C)C)O1 (stereo not given)
(45) CCCCC1Cc2[nH]c(=S)[nH]c(=O)c2C(c2cccc3ccccc23)O1 (stereo not given)
(46) Cc1ccc(-c2cn3c(n2)N(C(=O)C2CCCO2)CCC3)cc1 (stereo not given)
(47) O=C1NN(c2ccccc2)C(=O)/C1=C/c1ccc(Sc2ccc(Cl)cc2)o1
(48) Cc1ccc(Sc2ccc(/C=C3/C(=O)NN(c4ccccc4)C3=O)o2)cc1
(49) CCOC(=O)C1(CCOc2ccccc2)CCN(Cc2ccc(OC)cc2)CC1

assay / compound | 41 | 42 | 43 | 44 | 45 | 46 | 47 | 48 | 49
Giardia kill | · | · | 3 | · | · | · | ? | ? | 12
PINK1 expr mod | · | · | · | 1% | 0% | · | 0% | -1% | ?
ALOX12 inh | 32µM* | 2% | -8% | 0% | 13µM* | -7% | 16µM* | ? | 2%
PTHR1 ag | · | · | i | -25% | -13% | · | -4% | -94% | i
ERG-DNA inh | · | · | · | · | · | · | 25% | 15% | 10%
miR-21 reporter | · | · | 0% | · | · | · | 3% | 0% | ·

Bioassay records as filed in PubChem.
